# Results taken from PubChem BioAssay AID652257 (The Scripps Research Institute Molecular Screening Center, 2013).
# Amino acid sequences for entries named in this document (tags omitted).
# UniProt Q99873, whole entry, looked up: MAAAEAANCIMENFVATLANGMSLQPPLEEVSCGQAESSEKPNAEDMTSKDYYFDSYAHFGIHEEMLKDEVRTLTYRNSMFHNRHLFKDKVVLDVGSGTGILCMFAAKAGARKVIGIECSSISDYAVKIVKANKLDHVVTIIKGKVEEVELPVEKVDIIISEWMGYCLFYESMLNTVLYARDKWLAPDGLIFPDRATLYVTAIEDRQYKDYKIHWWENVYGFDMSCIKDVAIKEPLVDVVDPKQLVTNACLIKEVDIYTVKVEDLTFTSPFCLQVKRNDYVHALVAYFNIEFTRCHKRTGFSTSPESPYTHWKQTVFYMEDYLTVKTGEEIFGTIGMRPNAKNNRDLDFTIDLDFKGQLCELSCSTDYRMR
# The entries are a selection whose mix differs from that of the whole data set. Calls of active or inactive are those of the source.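 How the source made its calls: active means inhibition above about 21% made by adding two undisclosed values (limit read from the data); inactive means the rest.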
# Biological target: Protein arginine N-methyltransferase 1 (Homo sapiens) (UniProt Q99873)
# Assay: PRMT1 methyltransferase inhibitors, primary screen, biochemical, fluorescence polarization (AID 652257)
# Details: recombinant PRMT1, activity-based probe fluorescence polarization; at 2.79 µM; hits give high values
row,Compound,inhibition
1,CN(C)C1(CNC(=O)c2ccc(Cl)c(S(N)(=O)=O)c2)CCCCC1,inactive: -2.75%
2,O=P(Nc1ccccn1)(c1ccc(Br)cc1)c1ccc(Br)cc1,inactive: 0.61%
3,Nc1ccc(CCCCOc2ccccc2)cc1,inactive: 0.97%
4,COc1ccc(N)c([N+](=O)[O-])c1[N+](=O)[O-],inactive: 14.8%
5,C[C@H]1OP(=O)(Oc2ccccc2)[C@H](O)[C@H](O)[C@H]1N=[N+]=[N-] (stereo partly specified),inactive: -4.12%
6,O=P(Nc1nc2ccccc2s1)(c1ccccc1)c1ccccc1,inactive: -1.85%
7,O=[As](O)(c1ccccc1)c1ccc(O)cc1,inactive: -1.69%
8,CC(=O)NC(SC(=S)N(C)C)C(Cl)(Cl)Cl (stereo unspecified),inactive: -0.39%
9,O=[N+]([O-])c1ncn(CCn2cnc([N+](=O)[O-])n2)n1,inactive: 1.7%
10,O=C(OC1CN2CCC1CC2)c1cccc(Cl)c1 (stereo unspecified),inactive: -1.64%
11,Nc1ccc([As](=O)(O)c2ccc([N+](=O)[O-])cc2)cc1,inactive: -1.42%
12,C(Cc1nn[nH]n1)Cc1nn[nH]n1,inactive: -1.13%
13,C/C(N)=N\P(=O)(OCc1ccccc1)OCc1ccccc1,inactive: -2.03%
14,O=P(Nc1nccs1)(c1ccccc1)c1ccccc1,inactive: -2.26%
15,CC(C)C(=O)NC(Sc1ccccc1)C(Cl)(Cl)Cl (stereo unspecified),inactive: -0.51%
16,c1nnnn1CCn1cnnn1,inactive: -1.38%
17,CCOc1ccc(C2=NCC(CBr)S2)cc1 (stereo unspecified),inactive: 0.44%
18,O=P1(Nc2nc3ccc(Cl)cc3s2)COc2ccccc2O1 (stereo unspecified),inactive: 4.01%
19,CC(C)(C)C(=O)NC(Sc1ccccc1)C(Cl)(Cl)Cl (stereo unspecified),inactive: -4.83%
20,CCc1cc(O)c([N+](=O)[O-])c(C)c1[N+](=O)[O-],inactive: -0.77%
21,C[C@@H]1C=CCP(=O)(Oc2ccccc2)O1 (stereo partly specified),inactive: 1.22%
22,C[C@H]1OP(=O)(Oc2ccccc2)C[C@@H]2O[C@@H]21 (stereo partly specified),inactive: -1.64%
23,Cc1ccccc1CN(C)C(=O)COC(=O)C(O)(c1ccccc1)c1ccccc1,inactive: 3.91%
24,COC(=O)C1(C)COP(=O)(NCc2ccccc2)OC1 (stereo unspecified),inactive: 2.07%
25,N#C/C(=C\c1ccc(N(CCBr)CCBr)cc1)C(N)=O,inactive: -0.37%
26,CC(=O)c1ccc(N2CC2c2ccncc2)cc1 (stereo unspecified),inactive: -1.37%

row,Compound,inhibition
1,CC(=O)Nc1ccc(Oc2c([N+](=O)[O-])cc([N+](=O)[O-])cc2[N+](=O)[O-])cc1,inactive: 10.7%
2,CC(=O)Nc1ccc([As](=O)(O)O)c(O)c1,inactive: 2.34%
3,Cc1ccc(NP(=O)(Oc2cccc(C)c2)Oc2cccc(C)c2)nc1,inactive: -1.49%
4,c1ccc(-c2nn[nH]n2)c(-c2nn[nH]n2)c1,inactive: -1.01%
5,O=C(NC1CCS(=O)(=O)C1)NP(=S)(Oc1ccccc1)Oc1ccccc1 (stereo unspecified),inactive: 1.84%
6,CCNC(=S)/N=C(\N)N[N+](=O)[O-],inactive: -3.08%
7,O=P1(N(CCCl)CCCl)OCCC2CCCCN21 (stereo unspecified),inactive: -1.03%
8,CCC(=O)N1C2C3N(C(=O)CC)C1C1N(C(=O)CC)C(C(N1C(=O)CC)N3C(=O)CC)N2C(=O)CC,inactive: 1.28%
9,O=C(OC1CN2CCC1CC2)c1ccccc1 (stereo unspecified),inactive: 1.4%
10,CC(=O)NC(SC(=S)N(CC(C)C)CC(C)C)C(Cl)(Cl)Cl (stereo unspecified),inactive: -0.1%
11,Cc1ccc(OP(=O)(Nc2ccccn2)Oc2ccc(C)cc2)cc1,inactive: 0.91%
12,COC(=O)c1cc2c(s1)N=C(c1ccccc1)N(C)P2(=O)N1CCOCC1 (stereo unspecified),inactive: -4.56%
13,CN(C)C(=O)Oc1noc2ccccc12,inactive: -1.93%
14,O=c1c2cc([N+](=O)[O-])ccc2[nH]c2c([N+](=O)[O-])cc([N+](=O)[O-])cc12,inactive: 0.4%
15,Cc1ccccc1OP(=O)(Nc1ccccn1)Oc1ccccc1C,inactive: 7.52%
16,CC(NC(=O)COC(=O)C(O)(c1ccccc1)c1ccccc1)c1ccccc1 (stereo unspecified),inactive: -1.74%
17,CN(C)P(=O)(N(C)C)n1c(Nc2ccccc2)nnc1-c1ccccc1,inactive: 1.19%
18,O=P(Nc1nc2ccc(Cl)cc2s1)(c1ccccc1)c1ccccc1,inactive: -2.25%
19,CCCC1OP(N)(=O)OCC1CC (stereo unspecified),inactive: -4.08%
20,O=C(O)c1ccccc1[As](=O)(O)O,inactive: -1.44%
21,CC(=O)Nc1ccc([As](=O)(O)O)cc1,inactive: 1.99%
22,CCn1c(=O)n(C2CCN(CC3CCCCCCC3)C[C@H]2CO)c2ccccc21 (stereo partly specified),inactive: -5.09%
23,CN(C(=O)Cc1ccc(Cl)c(Cl)c1)[C@H]1CCCC[C@@H]1N1CCCC1,inactive: 3.87%
24,Cc1ccc(NP(=O)(Oc2ccccc2F)Oc2ccccc2F)nc1,inactive: -3.48%
25,CCOP(=O)(Nc1ccccc1)OCC,inactive: -0.18%
26,Cc1cc(SC(NC(=O)c2ccc(F)cc2)C(Cl)(Cl)Cl)ncn1 (stereo unspecified),active: 67.6%

row,Compound,inhibition
1,Nc1cccc2ccc([As](=O)(O)O)cc12,inactive: 5.7%
2,CCN(N=Nc1nonc1N)c1nonc1N,inactive: -1.79%
3,CN(C(=O)Cc1ccccc1)C1CC[C@@]2(CCCO2)C[C@@H]1N1CCCC1 (stereo partly specified),inactive: -0.28%
4,Cc1ccc(N/C(=N/P(=O)(N2CCOCC2)N2CCOCC2)N2CCOCC2)cc1,inactive: -0.75%
5,CN(C(=O)Cc1ccc(Cl)c(Cl)c1)[C@H]1CCCC[C@H]1N1CCCC1,inactive: -10.4%
6,NC(=O)c1cc([N+](=O)[O-])cc([N+](=O)[O-])c1N,inactive: -1.89%
7,Clc1ccc(Cl)c(NC2=NCC(CBr)S2)c1 (stereo unspecified),inactive: 9.12%
8,CN1CCCC(OC(=O)C(c2ccccc2)c2ccccc2)C1 (stereo unspecified),inactive: -1.67%
9,Cc1ccc(OP(=O)(Nc2nccs2)Oc2ccc(C)cc2)cc1,inactive: 3.9%
10,COc1ccccc1OP(=O)(Nc1ccc(C)cn1)Oc1ccccc1OC,inactive: 4.24%
11,O=C(NC(Sc1ccncn1)C(Cl)(Cl)Cl)c1ccccc1 (stereo unspecified),active: 80.1%
12,Oc1ccccc1CNc1ccccn1,inactive: -2.12%
13,CC(C)CC(=O)NC(Sc1ccc(Cl)cc1)C(Cl)(Cl)Cl (stereo unspecified),inactive: -1.86%
14,Nc1cc(N)c2nonc2c1[N+](=O)[O-],inactive: -1.07%
15,COc1ccc(C2=NCC(CBr)S2)cc1 (stereo unspecified),active: 30.8%
16,O=[N+]([O-])c1cc([N+](=O)[O-])c(CCNc2ccccc2)c([N+](=O)[O-])c1,active: 22.9%
17,CCc1nc2c(n1)c1c(non1O)c1c2no[n+]1[O-],inactive: -1.27%
18,Cc1ccc(NP(=O)(Oc2ccccc2)Oc2ccccc2)nc1,inactive: -2.01%
19,CC(=O)N1C2C3N(C(C)=O)C1C1N(C(C)=O)C(C(N1C(C)=O)N3C(C)=O)N2C(C)=O,inactive: -0.49%
20,O=[N+]([O-])c1cccc2n[nH]nc12,inactive: 0.61%
21,CCN(/C(=N/P(=O)(N1CCOCC1)N1CCOCC1)N1CCOCC1)c1ccc(OC)cc1,inactive: 2.78%
22,C[N+]1=C2C=CC=CC=C2SC12C([N+](=O)[O-])=CC([N+](=O)[O-])=C[C-]2[N+](=O)[O-] (stereo unspecified),active: 60.7%
23,Nc1ccc([As](=O)(O)c2ccc(N)cc2)cc1,inactive: 3.48%
24,c1cc(-c2nn[nH]n2)ccc1-c1nn[nH]n1,inactive: 5.4%
25,CC1CCN(C(=O)Oc2c(Cl)cc(Cl)c3cccnc23)CC1,inactive: 1.25%
26,CN(C)C(=O)OCCc1n(C)cc[n+]1C,inactive: 0.19%

row,Compound,inhibition
1,CC(C)=N/N=C(\N)N[N+](=O)[O-],inactive: -2.32%
2,CC(C)c1nc(Nc2ccccc2)n(P(=O)(N(C)C)N(C)C)n1,inactive: -5.8%
3,O=P1(N(CCCl)CCCl)OCCCS1 (stereo unspecified),inactive: 2.26%
4,O=C(Nc1cc([As](=O)(O)O)ccc1O)c1ccccc1,inactive: 2.69%
5,O=[N+]([O-])c1ncn(CCn2ncnc2[N+](=O)[O-])n1,inactive: 4.34%
6,CC(C)(C)C(=O)NC(Sc1ccncn1)C(Cl)(Cl)Cl (stereo unspecified),active: 32.7%
7,O=C(O)CNc1ccc([As](=O)(O)O)cc1,inactive: 2%
8,O=[N+]([O-])c1cccc(NC2=NCC(CBr)S2)c1 (stereo unspecified),inactive: 15.5%
9,COC(=O)C1(C)COP(=O)(Nc2ccccc2)OC1 (stereo unspecified),inactive: 3.59%
10,O=C(O)C(O)c1ccc(N(CCCl)CCCl)cc1 (stereo unspecified),inactive: -1.36%
11,CCOC(=O)Nc1ccc([As](=O)(O)O)c(O)c1,inactive: -1.67%
12,CC1CCNP(=O)(N(CCCl)CCCl)O1 (stereo unspecified),inactive: -3.88%
13,COP(=O)(OC)N1CC1c1ccccc1 (stereo unspecified),inactive: -3.47%
14,Cc1cc(SC(NC(=O)c2ccccc2)C(Cl)(Cl)Cl)nc(C(C)C)n1 (stereo unspecified),active: 24.6%
15,CCCCOc1ccc(C(=O)NCC2(N3CCCCC3)CCCCC2)cc1OC,inactive: -3.92%
16,CCOC(=O)Nc1cccc([As](=O)(O)O)c1,inactive: -0.64%
17,Cc1cc(SC(NC=O)C(Cl)(Cl)Cl)ncn1 (stereo unspecified),active: 82.7%
18,O=P(Nc1ccccn1)(c1cccc2ccccc12)c1cccc2ccccc12,inactive: 0.52%
19,O=[N+]([O-])c1ccc(Nc2ccc(Oc3ccc([N+](=O)[O-])cc3[N+](=O)[O-])cc2)c([N+](=O)[O-])c1,inactive: -1.22%
20,COC(=O)C1(C)COP(=O)(N2CCCC2)OC1 (stereo unspecified),inactive: -3.77%
21,COP1(=S)c2c(C)nn(CCC#N)c2N=C(c2ccc(F)cc2)N1C (stereo unspecified),inactive: 4.51%
22,O=C(O)C(=O)c1ccc(N(CCCl)CCCl)cc1,inactive: -0.17%
23,O=C(Nc1ccncc1[N+](=O)[O-])c1ccc([N+](=O)[O-])cc1[N+](=O)[O-],inactive: -2.01%
